Ab-14 heavy chain CDR variants: yeast mating affinities

Binding partner: SARS-CoV-2 spike HR2 peptide, sequence PDVDLGDISGINAS.

Ab-14 is the parent antibody, in scFv form: VH, then the linker GGGGSGGGGSGGGGS, then VL. The light chain is unchanged in all variants.
VH: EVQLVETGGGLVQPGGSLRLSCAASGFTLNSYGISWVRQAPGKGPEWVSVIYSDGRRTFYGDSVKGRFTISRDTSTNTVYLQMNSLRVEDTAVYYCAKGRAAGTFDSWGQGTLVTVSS
VL: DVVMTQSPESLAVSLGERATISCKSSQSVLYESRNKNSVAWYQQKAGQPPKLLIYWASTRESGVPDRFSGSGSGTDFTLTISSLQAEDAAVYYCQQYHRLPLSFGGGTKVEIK

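Phage display of a naive human antibody library on the peptide gave the parent. In library AAYL49, one, two or three CDR residues were substituted; doubles and triples were drawn at random. The assay is AlphaSeq: two haploid yeast populations carry antibody and antigen on their surface. After mating in shaken culture at 30 °C for 16 h, diploids were selected and their barcode pairs sequenced. Scores were corrected for input abundance and mapped to Kd with protein pairs of known affinity run in the same pool. Each pool was mated in three replicate cultures.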

Changes read parent residue, position, new residue, counted from the first residue of the VH shown. Numbers give log10(Kd / nM), so 0 is 1 nM and 3 is 1 µM. Smaller is tighter. "nd" means that the variant was in the library but no mating with the target was seen in that replicate; the authors take this as a sign of poor binding, and no number exists.

changes | log10 Kd, replicates | control signals
Y32F/V64H/G99T | nd nd nd | 0 of 9
F27P/G55C/G103M | nd nd nd | 2 of 9 (2.36)
N30H/D62M/S63T | nd nd nd | 1 of 9 (3.22)
R56P/T58E/F105I | nd nd nd | 1 of 9 (4.20)
S35V/I51Y/V64W | nd nd nd | 0 of 9
F27L/Y60G/S63W | nd nd nd | 1 of 9 (1.83)
I51N/Y60V/D62P | 4.09 nd nd | 3 of 9 (4.78)
T28E/G55R/Y60T | nd nd nd | 3 of 9 (4.37)
F27D/I34F/F59C | nd nd 4.98 | 1 of 9 (3.45)
N30T/S53T/G55R | nd nd nd | 0 of 9
S31M/I51L/Y52W | nd nd nd | 0 of 9
F27I/S31K/F59H | nd nd nd | 0 of 9
S31I/A102S | 2.29 2.71 2.17 | 2 of 9 (3.13)
L29H/Y32Q/A102Q | nd nd nd | 0 of 9
D54N/G103V | nd nd nd | 0 of 9
S31Y/Y52A/F59Y | 3.82 2.84 3.51 | 3 of 9 (4.60)
G33F/I34A/R56P | 4.98 2.98 nd | 2 of 9 (3.10)
T28W/D54P | 5.13 4.19 4.29 | 5 of 9 (4.63)
F27D/V50W/G103T | nd nd 4.27 | 0 of 9
D54C/A101E/F105H | nd nd nd | 0 of 9
R57C/T104Y/D106L | nd nd nd | 0 of 9
G55T/T58Q | nd nd nd | 0 of 9
D54V/G55E/G99M | nd 4.16 nd | 1 of 9 (2.53)
G33P/R57P | nd 4.33 2.67 | 0 of 9
L29Y/F59I/A101R | nd 3.88 nd | 1 of 9 (3.55)
T28Q/R57A/G61W | nd 4.80 3.86 | 6 of 9 (5.11)
R57I | 3.21 nd 3.99 | 3 of 9 (3.65)
G33E/D62E/A102K | nd nd 5.45 | 5 of 9 (4.98)
F27E/D62L/A101F | nd nd nd | 2 of 9 (3.40)
G26D/R57L/F105K | nd nd nd | 0 of 9
D54K/G103H/T104N | nd nd nd | 1 of 9 (3.67)
L29H/G55T/G99H | nd nd 5.09 | 0 of 9
F27P/S31V/G99E | 2.14 2.14 2.25 | 1 of 9 (4.61)
F27C/G33Y/D62F | 3.97 4.80 3.99 | 2 of 9 (3.55)
F27V | 2.71 2.64 2.81 | 3 of 9 (3.39)

Background: pairings of library AAYL49 with three empty control strains gave a value in 15% of cases (median 4.06, 5th percentile 2.83). Values in that range, when seen in few replicates, are hard to tell from nonspecific mating. Also given: how often the same scFv was detected with the empty control strains, with their mean in brackets. Parent in this assay: reference entry 0.65, copy in this library 4.11 (one replicate of three).

From the AlphaSeq antibody data of Engelhart et al. 2022 (doi:10.1038/s41597-022-01779-4), copy in the FLAb collection.